# Test results reported in PubChem BioAssay AID492947 (National Center for Advancing Translational Sciences (NCATS), 2010).
# Sequences of proteins named here, by UniProt entry; tags and fusion partners are left off.
# UniProt P07550, whole entry: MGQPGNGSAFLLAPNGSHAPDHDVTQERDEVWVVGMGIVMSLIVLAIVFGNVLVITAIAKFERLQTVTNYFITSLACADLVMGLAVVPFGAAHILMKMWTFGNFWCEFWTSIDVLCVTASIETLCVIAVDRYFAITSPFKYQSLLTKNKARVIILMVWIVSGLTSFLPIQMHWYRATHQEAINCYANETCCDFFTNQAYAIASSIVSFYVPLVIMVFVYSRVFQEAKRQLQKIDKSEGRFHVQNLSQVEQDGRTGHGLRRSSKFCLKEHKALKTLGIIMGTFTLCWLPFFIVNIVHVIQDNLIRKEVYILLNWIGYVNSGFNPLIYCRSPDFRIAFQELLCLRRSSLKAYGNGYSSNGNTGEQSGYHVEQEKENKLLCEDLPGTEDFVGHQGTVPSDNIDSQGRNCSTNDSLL
# Only a part is listed here, and it is no random draw. Some salts or complexes appear as unconnected parts, following the source record. Calls of active or inactive are those of the source. Calls come from the whole dose curve; as a rule, active = well fitted activation curve with a large enough effect; inconclusive = small, poorly fitted or top-dose-only effect; inactive = flat fitted curve, though single readings scatter.
# Target: Beta-2 adrenergic receptor (Homo sapiens) (UniProt P07550)
# Assay: qHTS assay of beta-arrestin-biased ligands of beta2-adrenergic receptor;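 note: 0% = DMSO controls and full agonism = EC100 isoproterenol or metaproterenol; nearly all actives have a fitted effect of over 65% in size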
# Conditions: beta-arrestin recruitment to beta2AR, cell-based reporter; at 46.1 µM (top of the series)
# Text: NIH Molecular Libraries Probe Production Network [MLPCN]
# NIH Chemical Genomics Center [NCGC]
# PI: Bryan Roth and Bob Lefkowitz
# The concept of biased agonism is an emerging concept of molecular pharmacology which proposes that seven transmembrane receptors (7TMRs) or G protein-coupled receptors (GPCRs), exist in multiple signaling conformations and complexes and that ligands (either agonists or antagonists) can induce signaling biased responses for distinct signal transduction cascades.
# Furthermore, accumulating evidence over the last decade has drawn attention to a novel function of beta-arrestins as signal transducers that scaffold various signaling molecules upon activation of 7TMRs. […] This beta-arrestin-biased signaling presumably leads to distinct physiological outcomes from those by G protein activation.
# Additionally, the active receptor conformations which […] on this beta-arrestin signaling are likely different from those activating G protein signaling
# The goal of this screening project will be to discover and optimize novel beta-arrestin-biased ligands for beta2-AR signaling. A luminescent cell-based assay for beta2-AR-mediated agonism, known as the Tango assay, has been validated in which ligand binding of a recombinant beta2-AR and subsequent recruitment of a recombinant beta-arrestin lead to the release of the transcriptional activator tTA, which upregulates transcription of a tTA-responsive luciferase gene. […] Compounds were screened as a concentration-titration series that ranged from 46 microM to 0.6 nM.
# NCGC Assay Protocol Summary:
# Tango cells were dispensed into white, solid, tissue-culture-treated 1536-well plates at 1500 cells/well in DMEM, containing 1% fetal bovine serum (FBS). Then, 23 nL of compounds or DMSO were delivered to each well using a pin tool. Plates were incubated at 37 degrees C, 5% CO2 for 18 hr. Then 2.5 uL luminescent substrate mix (in-house prepared: 150 mM Tris-Cl, pH 7.6, 3 mM MgCl2, 1% Triton X-100, 5 mM DTT, 0.5 mM CoA, 0.15 mM ATP, 0.44 mM D-luciferin, final concentrations) was added to each well. Plates were then incubated for 15 minutes at room temperature, and subsequently measured on a ViewLux plate reader for luminescent signal using a clear filter with a 10 second exposure and 2x binning. The %Activity was determined from the corrected luminescence values.
# Concentration-response curves were fitted to the signals arising from the resulting luminescence. The concentration-effect curves were then classified based on curve quality (r2), response magnitude and degree of measured activity, and compounds were subsequently categorized based on their curve class.
# Keywords: biased agonism, beta2-AR, beta-arrestin, GPCR, 7TMR, Tango, luminescence, MLSMR, MLPCN, NIH Roadmap, qHTS, NCGC
row,Compound,activation
1,Cc1ccc(C(=O)NCC2(N3CCCCC3)CCCCC2)o1,inactive: 0.133%
2,Fc1ccccc1NC1CCN(Cc2ccccc2)CC1,inactive: -0.241%
3,COc1cc(OC)cc(C(=O)NCC2(N3CCCCC3)CCCCC2)c1,inactive: 2.9%
4,O=C(NCC1(N2CCCCC2)CCCCC1)c1ccco1,inactive: -0.18%
5,CN(C)c1ccc(C(=O)NCC2(N3CCCCC3)CCCCC2)cc1,inactive: 0.0618%
6,CCN1CCC(Nc2cccc(F)c2)CC1,inactive: -0.264%
7,CCCOc1ccc(C(=O)NCC2(N(C)C)CCCCC2)cc1,inactive: -0.698%
8,CC(C)(C)OC(=O)N1CCC(Nc2ccccc2)CC1,inactive: -0.0416%
9,O=C(O)C1(Nc2ccccc2)CCN(Cc2ccccc2)CC1,inactive: -0.36%
10,CCOc1ncccc1C(=O)NCC1(N2CCOCC2)CCCCC1,inactive: -0.306%
11,CN1CCC(Nc2ccc(F)c(Cl)c2)CC1,inactive: -0.626%
12,CCCOc1ccc(C)cc1CN(CCCl)CCCl,inactive: 0.0775%
13,CN1CCC(Nc2ccc(Cl)cc2)CC1,inactive: -0.748%
14,CCC(CO)(C(=O)OC1CN2CCC1CC2)c1ccccc1 (centres undefined),inactive: -1.13%
15,COc1cc(OC)cc(C(=O)NCC2(N3CCOCC3)CCCCC2)c1,inactive: -0.0079%
16,COc1cccc(C(=O)N(c2cc(C)cc(C)c2)C2CCN(C(=O)OC(C)(C)C)CC2)c1,inactive: 0.262%
17,COc1ccc(C(=O)NCC2(N3CCOCC3)CCCCC2)cc1OC,inactive: -0.372%
18,O=C(NCC1(N2CCOCC2)CCCCC1)c1cc(Br)ccc1Cl,inactive: -0.0804%
19,COc1cc(C(=O)NCC2(N3CCOCC3)CCCCC2)cc(OC)c1C,inactive: -0.958%
20,O=C(OC1CN2CCC1CC2)C1c2ccccc2C=Cc2ccccc21 (centres undefined),inactive: 1.86%
21,CCc1cc(C(=O)NCC2(N3CCCCC3)CCCCC2)sc1C,inactive: -0.228%
22,O=C(O)c1cccc(Nc2c([N+](=O)[O-])cc([N+](=O)[O-])cc2[N+](=O)[O-])c1,inactive: -0.0224%
23,N/C(=N\O)c1c(N)no[n+]1[O-],inactive: -0.838%
24,CCOC(=O)N1CCC(Nc2ccc(C)cc2)CC1,inactive: -0.277%
25,CCOC(=O)C(CC)C1=NC(C)(C)Cc2ccccc21.O=[N+]([O-])c1cc([N+](=O)[O-])c(O)c([N+](=O)[O-])c1 (centres undefined),inactive: -0.198%

row,Compound,activation
1,CC(C)(C)OC(=O)N1CCC(N(C(=O)c2ccccc2)c2ccc(Cl)cc2)CC1,inactive: 0.379%
2,N#Cc1ccc(C(=O)NCC2(N3CCCCC3)CCCCC2)cc1,inactive: 0.307%
3,c1ccc(CN2CCC(Nc3ccccc3)CC2)cc1,inactive: 0.0609%
4,CCCN1CCC(Nc2cc(OC)cc(OC)c2)CC1,inactive: -0.425%
5,CN(C)C1(CNC(=O)c2cccc(C#N)c2)CCCCC1,inactive: -0.0091%
6,O=C(NCC1(N2CCCCC2)CCCCC1)c1cccc([N+](=O)[O-])c1,inactive: -0.138%
7,CSc1ccc(C(=O)NCC2(N3CCOCC3)CCCCC2)cc1,inactive: -0.0861%
8,CCN1CCC(Nc2ccc(Cl)cc2)CC1,inactive: -0.954%
9,N#CC1(Nc2ccccc2)CCN(CCc2ccccc2)CC1,inactive: 0.256%
10,O=C(NCC1(N2CCCCC2)CCCCC1)c1ccc(OC(F)F)cc1,inactive: -0.493%
11,CN1CCN(CCOC(=O)C(O)(c2ccccc2)c2ccccc2)CC1,inactive: -1.99%
12,COc1ccc(NC2CCN(C(=O)OC(C)(C)C)CC2)cc1,inactive: 0.173%
13,CC(C)c1ccc(C(=O)NCC2(N3CCOCC3)CCCCC2)cc1,inactive: -0.392%
14,COc1cc(C(=O)NCC2(N3CCCCC3)CCCCC2)ccc1OC(F)F,inactive: 0.114%
15,O=C(NCC1(N2CCOCC2)CCCCC1)c1cc(=O)[nH]c2ccccc12,inactive: 0.101%
16,O=C(NCC1(N2CCCCC2)CCCCC1)c1cccc(C(F)(F)F)c1,inactive: -0.305%
17,O=[N+]([O-])c1cc([N+](=O)[O-])c(NCC2CCS(=O)(=O)C2)c([N+](=O)[O-])c1 (centres undefined),inactive: -0.274%
18,COc1cc(OC)c(C(=O)NCC2(N(C)C)CCCCC2)cc1OC,inactive: -0.705%
19,O=C(NCC1(N2CCOCC2)CCCCC1)c1cc(F)c(F)cc1Cl,inactive: -0.729%
20,COc1ccc(CN(CCCl)CCCl)cc1Cl,inactive: 0.0019%
21,O=[N+]([O-])c1cc([N+](=O)[O-])c(OC2CCCCC2O)c([N+](=O)[O-])c1 (centres undefined),inactive: -0.244%
22,CN(C)c1cccc(C(=O)NCC2(N3CCCCC3)CCCCC2)c1,inactive: 0.494%
23,CC(C)c1ccc(NC2CCN(C(=O)OC(C)(C)C)CC2)cc1,inactive: 0.0651%
24,CCCOc1ccc(C(=O)NCC2(N(C)C)CCCCC2)cc1OC,inactive: -0.86%
25,O=C(NCC1(N2CCCCC2)CCCCC1)c1cncc(Br)c1,inactive: -0.0469%

row,Compound,activation
1,COc1ccc2c(c1O)-c1c(O)c(OC)cc3c1[C@H](C2)[N+](C)(C)CC3.O=[N+]([O-])c1cc([N+](=O)[O-])c([O-])c([N+](=O)[O-])c1[O-],inactive: -0.0364%
2,O=C(OC1CN2CCC1CC2)c1ccc([N+](=O)[O-])cc1 (centres undefined),inactive: -0.394%
3,CSc1ccccc1C(=O)NCC1(N2CCCCC2)CCCCC1,inactive: 0.174%
4,O=C(NCC1(N2CCCCC2)CCCCC1)c1ccc(=O)[nH]c1,inactive: -0.414%
5,O=C(NCC1(N2CCCCC2)CCCCC1)c1cccs1,inactive: -0.164%
6,COc1ccc(C(=O)NCC2(N3CCCCC3)CCCCC2)cc1,inactive: 0.227%
7,COc1ccc(C(=O)NCC2(N3CCCCC3)CCCCC2)c(OC)c1OC,inactive: -0.226%
8,CC(C)(C)OC(=O)N1CCC(N(C(=O)c2ccccc2)c2ccc(F)cc2)CC1,inactive: 0.293%
9,CCOC(=O)N1CCC(Nc2ccc(OC)cc2)CC1,inactive: 0.32%
10,O=C(OC1CN2CCC1CC2)C1c2ccccc2Oc2ccccc21 (centres undefined),inactive: -0.408%
11,O=C(NCC1(N2CCCCC2)CCCCC1)c1ccc(Cl)s1,inactive: -0.0959%
12,N#CC1(Nc2ccccc2)CCN(Cc2ccccc2)CC1,inactive: -0.348%
13,COc1ccc(Cl)cc1C(=O)NCC1(N2CCOCC2)CCCCC1,inactive: -0.0549%
14,O=C(NCC1(N2CCOCC2)CCCCC1)c1cc2ccccc2o1,inactive: -0.414%
15,O=C(NCC1(N2CCCCC2)CCCCC1)c1ccc(Cl)nc1,inactive: -0.095%
16,Cc1cc(C)cc(N(C(=O)c2ccccc2)C2CCN(C(=O)OC(C)(C)C)CC2)c1,inactive: 9.22%
17,O=C(NCC1(N2CCCCC2)CCCCC1)c1ccc(F)cc1,inactive: 0.072%
18,CCCCOc1ccc(C(=O)NCC2(N3CCOCC3)CCCCC2)cc1,inactive: 0.0689%
19,COc1ccc(NC2CCN(CCc3ccccc3)CC2)c(OC)c1,inactive: -0.352%
20,CCOC(=O)N1CCC(Nc2ccc(F)cc2)CC1,inactive: 0.5%
21,CCOc1ccc(C)cc1CN(CCCl)CCCl,inactive: 5.98%
22,COc1cc(C(=O)NCC2(N(C)C)CCCCC2)ccc1OC(F)F,inactive: 0.434%
23,CCOC(=O)N1CCC(Nc2cccc(C)c2)CC1,inactive: -0.253%
24,Cc1ccc(OCC(C)C)c(CN(CCCl)CCCl)c1,inactive: 0.264%
